Measurements as given in ChEMBL document CHEMBL5537129, “Discovery of novel 3-(1H-pyrazol-4-yl)-1H-indazole derivatives as potent type II TRK inhibitors against acquired resistance” (Eur J Med Chem, 2024).

Amino acid sequences for entries named in this document (tags omitted). A change or cut given only in a name is not applied to a line headed by its entry.
UniProt Q05397, whole entry, looked up: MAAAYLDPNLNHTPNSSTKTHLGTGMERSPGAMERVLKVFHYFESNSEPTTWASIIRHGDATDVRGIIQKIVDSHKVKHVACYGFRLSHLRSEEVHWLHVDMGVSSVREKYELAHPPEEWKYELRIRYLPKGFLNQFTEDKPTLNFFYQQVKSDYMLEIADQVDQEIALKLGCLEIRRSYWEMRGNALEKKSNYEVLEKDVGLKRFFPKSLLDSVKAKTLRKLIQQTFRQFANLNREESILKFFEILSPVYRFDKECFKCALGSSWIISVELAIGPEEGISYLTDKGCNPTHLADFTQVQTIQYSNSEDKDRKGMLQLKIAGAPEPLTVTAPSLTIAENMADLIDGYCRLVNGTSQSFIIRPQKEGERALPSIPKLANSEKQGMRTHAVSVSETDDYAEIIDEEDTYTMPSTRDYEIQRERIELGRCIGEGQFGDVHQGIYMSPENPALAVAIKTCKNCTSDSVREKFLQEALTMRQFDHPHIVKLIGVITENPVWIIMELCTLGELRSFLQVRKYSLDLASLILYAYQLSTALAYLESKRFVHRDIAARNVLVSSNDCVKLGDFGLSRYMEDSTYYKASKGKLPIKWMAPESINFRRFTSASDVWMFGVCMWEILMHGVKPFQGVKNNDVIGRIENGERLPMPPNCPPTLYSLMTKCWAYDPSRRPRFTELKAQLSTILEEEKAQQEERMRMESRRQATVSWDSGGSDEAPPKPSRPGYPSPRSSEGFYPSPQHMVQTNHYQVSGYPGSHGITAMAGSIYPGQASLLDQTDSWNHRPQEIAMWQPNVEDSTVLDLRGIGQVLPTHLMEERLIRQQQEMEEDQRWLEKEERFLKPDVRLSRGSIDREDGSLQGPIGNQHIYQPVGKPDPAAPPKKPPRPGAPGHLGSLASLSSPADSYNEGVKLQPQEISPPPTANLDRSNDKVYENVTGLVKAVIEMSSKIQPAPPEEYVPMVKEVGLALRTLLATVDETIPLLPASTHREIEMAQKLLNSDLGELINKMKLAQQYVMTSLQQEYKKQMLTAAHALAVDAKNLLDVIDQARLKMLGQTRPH
UniProt P11309, whole entry, looked up: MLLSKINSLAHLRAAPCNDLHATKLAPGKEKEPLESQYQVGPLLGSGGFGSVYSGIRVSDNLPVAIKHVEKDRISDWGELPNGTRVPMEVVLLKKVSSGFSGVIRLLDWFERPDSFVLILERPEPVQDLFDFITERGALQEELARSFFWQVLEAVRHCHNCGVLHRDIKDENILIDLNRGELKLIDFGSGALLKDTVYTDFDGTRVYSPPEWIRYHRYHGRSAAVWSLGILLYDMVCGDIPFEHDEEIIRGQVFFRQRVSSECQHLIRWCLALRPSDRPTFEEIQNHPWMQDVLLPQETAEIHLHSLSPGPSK
UniProt O00141: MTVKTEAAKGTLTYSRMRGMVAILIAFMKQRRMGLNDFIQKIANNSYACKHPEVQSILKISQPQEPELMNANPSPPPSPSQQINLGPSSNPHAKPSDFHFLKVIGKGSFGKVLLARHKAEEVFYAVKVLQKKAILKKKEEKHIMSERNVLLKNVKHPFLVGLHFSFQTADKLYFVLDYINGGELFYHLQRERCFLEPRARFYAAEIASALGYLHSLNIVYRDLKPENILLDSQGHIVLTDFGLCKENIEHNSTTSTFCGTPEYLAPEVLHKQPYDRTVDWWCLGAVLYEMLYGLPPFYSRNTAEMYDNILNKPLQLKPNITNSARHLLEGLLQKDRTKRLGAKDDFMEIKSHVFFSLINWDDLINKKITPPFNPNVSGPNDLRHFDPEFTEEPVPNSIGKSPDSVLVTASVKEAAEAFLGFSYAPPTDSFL
UniProt P51813: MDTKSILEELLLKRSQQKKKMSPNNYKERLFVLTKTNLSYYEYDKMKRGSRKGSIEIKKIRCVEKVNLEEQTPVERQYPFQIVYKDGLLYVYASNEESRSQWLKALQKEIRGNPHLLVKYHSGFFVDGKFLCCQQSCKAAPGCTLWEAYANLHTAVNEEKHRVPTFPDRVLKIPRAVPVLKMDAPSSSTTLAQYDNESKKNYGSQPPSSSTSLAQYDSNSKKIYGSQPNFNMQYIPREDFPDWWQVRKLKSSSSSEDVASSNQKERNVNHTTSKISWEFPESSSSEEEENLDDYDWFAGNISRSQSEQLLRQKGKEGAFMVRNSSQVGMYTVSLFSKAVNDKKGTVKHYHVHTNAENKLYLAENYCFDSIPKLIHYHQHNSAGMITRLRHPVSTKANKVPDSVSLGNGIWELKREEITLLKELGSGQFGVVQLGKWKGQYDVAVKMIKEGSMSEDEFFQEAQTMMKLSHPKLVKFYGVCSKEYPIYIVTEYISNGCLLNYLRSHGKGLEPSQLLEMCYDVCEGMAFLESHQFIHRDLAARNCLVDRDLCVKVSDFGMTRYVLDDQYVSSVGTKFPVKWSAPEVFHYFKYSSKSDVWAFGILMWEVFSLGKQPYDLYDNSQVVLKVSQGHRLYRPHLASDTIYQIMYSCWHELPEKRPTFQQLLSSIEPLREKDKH
UniProt P07332: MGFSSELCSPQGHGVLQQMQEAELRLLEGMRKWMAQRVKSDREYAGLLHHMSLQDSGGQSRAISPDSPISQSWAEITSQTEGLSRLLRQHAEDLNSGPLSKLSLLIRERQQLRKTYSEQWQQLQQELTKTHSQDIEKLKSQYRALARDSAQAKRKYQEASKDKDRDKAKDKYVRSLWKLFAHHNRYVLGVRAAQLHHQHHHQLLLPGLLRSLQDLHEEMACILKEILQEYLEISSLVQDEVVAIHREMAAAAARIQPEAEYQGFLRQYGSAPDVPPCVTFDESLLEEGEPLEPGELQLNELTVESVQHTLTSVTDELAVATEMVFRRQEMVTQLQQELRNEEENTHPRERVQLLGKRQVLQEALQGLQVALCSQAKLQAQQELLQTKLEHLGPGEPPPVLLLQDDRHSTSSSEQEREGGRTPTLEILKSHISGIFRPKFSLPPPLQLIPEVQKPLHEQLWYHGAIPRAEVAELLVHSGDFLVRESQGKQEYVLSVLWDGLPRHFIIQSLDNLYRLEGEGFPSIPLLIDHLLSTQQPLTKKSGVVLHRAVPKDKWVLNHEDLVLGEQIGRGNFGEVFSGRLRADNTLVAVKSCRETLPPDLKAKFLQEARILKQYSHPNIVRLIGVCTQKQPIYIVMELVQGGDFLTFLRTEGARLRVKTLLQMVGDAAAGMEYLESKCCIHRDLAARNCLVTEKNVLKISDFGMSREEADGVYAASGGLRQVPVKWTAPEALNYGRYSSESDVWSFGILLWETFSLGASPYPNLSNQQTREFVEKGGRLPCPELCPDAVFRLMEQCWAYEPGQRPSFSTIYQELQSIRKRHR
UniProt Q9UQM7, whole entry: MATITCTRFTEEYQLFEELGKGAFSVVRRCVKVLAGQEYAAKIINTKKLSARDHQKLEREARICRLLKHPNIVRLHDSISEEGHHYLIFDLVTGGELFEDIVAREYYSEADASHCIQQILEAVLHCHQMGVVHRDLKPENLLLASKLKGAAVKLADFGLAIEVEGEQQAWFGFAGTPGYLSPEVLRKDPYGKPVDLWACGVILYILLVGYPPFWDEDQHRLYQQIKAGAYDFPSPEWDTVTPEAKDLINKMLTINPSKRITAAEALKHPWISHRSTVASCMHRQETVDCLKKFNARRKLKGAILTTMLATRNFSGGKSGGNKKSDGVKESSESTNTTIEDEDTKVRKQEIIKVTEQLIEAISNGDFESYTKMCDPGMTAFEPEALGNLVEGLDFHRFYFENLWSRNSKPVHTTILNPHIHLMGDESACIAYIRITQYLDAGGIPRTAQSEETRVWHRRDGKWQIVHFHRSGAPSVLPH
UniProt O60674: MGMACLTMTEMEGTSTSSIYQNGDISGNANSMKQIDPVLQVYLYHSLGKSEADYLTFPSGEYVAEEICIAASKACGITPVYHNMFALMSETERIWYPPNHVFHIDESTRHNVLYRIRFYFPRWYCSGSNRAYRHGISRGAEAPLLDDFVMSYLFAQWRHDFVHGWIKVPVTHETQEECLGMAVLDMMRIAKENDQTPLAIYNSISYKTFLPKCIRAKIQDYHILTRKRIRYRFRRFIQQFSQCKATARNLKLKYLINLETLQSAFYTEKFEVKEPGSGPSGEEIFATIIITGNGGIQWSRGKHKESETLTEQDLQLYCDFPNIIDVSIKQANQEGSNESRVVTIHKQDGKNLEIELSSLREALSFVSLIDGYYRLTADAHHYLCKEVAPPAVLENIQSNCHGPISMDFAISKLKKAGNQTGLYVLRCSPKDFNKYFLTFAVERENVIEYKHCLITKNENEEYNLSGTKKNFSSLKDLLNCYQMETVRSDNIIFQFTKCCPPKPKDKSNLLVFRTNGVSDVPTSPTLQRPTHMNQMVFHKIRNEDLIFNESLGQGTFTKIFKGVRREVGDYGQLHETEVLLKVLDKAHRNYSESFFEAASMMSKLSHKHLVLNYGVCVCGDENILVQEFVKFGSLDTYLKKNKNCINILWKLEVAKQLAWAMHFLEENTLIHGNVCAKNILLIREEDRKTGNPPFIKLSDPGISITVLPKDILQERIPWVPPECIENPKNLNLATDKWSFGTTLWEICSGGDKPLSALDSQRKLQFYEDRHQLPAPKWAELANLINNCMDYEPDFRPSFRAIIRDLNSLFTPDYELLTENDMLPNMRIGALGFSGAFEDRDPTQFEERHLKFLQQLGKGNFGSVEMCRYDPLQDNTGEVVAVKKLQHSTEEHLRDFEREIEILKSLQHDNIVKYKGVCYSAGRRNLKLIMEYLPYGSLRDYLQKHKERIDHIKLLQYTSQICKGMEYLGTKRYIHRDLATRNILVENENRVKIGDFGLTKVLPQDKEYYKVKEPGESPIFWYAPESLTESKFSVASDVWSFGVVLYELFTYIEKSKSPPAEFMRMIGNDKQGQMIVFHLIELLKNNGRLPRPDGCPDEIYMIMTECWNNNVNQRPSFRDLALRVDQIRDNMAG
UniProt O14965: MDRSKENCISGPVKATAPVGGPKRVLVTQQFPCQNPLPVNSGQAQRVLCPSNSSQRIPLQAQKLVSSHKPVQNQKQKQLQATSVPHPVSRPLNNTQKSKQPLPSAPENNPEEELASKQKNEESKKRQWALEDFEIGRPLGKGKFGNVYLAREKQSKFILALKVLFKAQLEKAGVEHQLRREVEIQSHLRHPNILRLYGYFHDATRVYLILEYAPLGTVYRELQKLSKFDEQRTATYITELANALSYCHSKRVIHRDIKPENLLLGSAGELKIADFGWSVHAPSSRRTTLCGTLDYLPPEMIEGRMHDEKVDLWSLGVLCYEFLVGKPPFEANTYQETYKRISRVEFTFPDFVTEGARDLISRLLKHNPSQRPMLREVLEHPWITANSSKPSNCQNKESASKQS
UniProt Q02763: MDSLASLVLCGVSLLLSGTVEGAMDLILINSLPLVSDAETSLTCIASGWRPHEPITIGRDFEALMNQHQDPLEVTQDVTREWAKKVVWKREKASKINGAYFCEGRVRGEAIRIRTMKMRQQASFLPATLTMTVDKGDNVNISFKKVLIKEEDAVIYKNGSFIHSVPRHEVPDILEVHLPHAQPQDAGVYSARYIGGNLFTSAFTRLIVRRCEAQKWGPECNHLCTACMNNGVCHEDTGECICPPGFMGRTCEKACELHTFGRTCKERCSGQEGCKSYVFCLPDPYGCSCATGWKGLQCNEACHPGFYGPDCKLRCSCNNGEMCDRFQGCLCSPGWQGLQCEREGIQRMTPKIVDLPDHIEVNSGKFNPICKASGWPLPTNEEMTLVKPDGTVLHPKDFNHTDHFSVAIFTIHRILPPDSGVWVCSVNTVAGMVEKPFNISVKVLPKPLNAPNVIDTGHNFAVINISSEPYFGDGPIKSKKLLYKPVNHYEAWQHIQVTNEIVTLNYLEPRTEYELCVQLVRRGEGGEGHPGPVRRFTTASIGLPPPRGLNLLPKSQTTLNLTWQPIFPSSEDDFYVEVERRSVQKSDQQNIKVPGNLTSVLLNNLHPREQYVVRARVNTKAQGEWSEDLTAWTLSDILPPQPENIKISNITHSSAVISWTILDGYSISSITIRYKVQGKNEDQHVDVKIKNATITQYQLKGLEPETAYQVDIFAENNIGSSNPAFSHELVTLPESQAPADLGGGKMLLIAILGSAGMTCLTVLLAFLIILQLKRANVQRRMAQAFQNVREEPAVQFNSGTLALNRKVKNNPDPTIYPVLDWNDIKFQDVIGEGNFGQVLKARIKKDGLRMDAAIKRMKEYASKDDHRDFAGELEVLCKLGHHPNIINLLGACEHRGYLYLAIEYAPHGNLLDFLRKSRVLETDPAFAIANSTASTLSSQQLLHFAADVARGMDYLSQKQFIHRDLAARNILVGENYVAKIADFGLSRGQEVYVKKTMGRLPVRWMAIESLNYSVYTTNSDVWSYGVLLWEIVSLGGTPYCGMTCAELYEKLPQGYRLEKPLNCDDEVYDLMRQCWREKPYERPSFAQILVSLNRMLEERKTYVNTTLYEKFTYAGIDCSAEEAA

Legend:
Settings in all cases: dose 1000.0 nM
[1] = biological target: Serine/threonine-protein kinase mTOR (Homo sapiens) (UniProt P42345)
[2] = biological target: cAMP-dependent protein kinase (PKA) (Homo sapiens) (UniProt P22694+P17612+P22612)
[3] = biological target: RAF proto-oncogene serine/threonine-protein kinase (Homo sapiens) (UniProt P04049)
[4] = biological target: Serine/threonine-protein kinase TBK1 (Homo sapiens) (UniProt Q9UHD2)
[5] = biological target: Focal adhesion kinase 1 (Homo sapiens) (UniProt Q05397)
[6] = biological target: Inhibitor of nuclear factor kappa-B kinase subunit beta (Homo sapiens) (UniProt O14920)
[7] = biological target: Tyrosine-protein kinase BTK (Homo sapiens) (UniProt Q06187)
[8] = biological target: Insulin-like growth factor 1 receptor (Homo sapiens) (UniProt P08069)
[9] = biological target: Tyrosine-protein kinase SYK (Homo sapiens) (UniProt P43405)
[10] = biological target: Serine/threonine-protein kinase pim-1 (Homo sapiens) (UniProt P11309)
[11] = biological target: Serine/threonine-protein kinase Sgk1 (Homo sapiens) (UniProt O00141)
[12] = biological target: Hepatocyte growth factor receptor (Homo sapiens) (UniProt P08581)
[13] = biological target: Cytoplasmic tyrosine-protein kinase BMX (Homo sapiens) (UniProt P51813)
[14] = biological target: Homeodomain-interacting protein kinase 1 (Homo sapiens) (UniProt Q86Z02)
[15] = biological target: Proto-oncogene tyrosine-protein kinase ROS (Homo sapiens) (UniProt P08922)
[16] = biological target: Mitogen-activated protein kinase 3 (Homo sapiens) (UniProt P27361)
[17] = biological target: Mitogen-activated protein kinase kinase kinase 20 (Homo sapiens) (UniProt Q9NYL2)
[18] = biological target: Serine/threonine-protein kinase B-raf (Homo sapiens) (UniProt P15056)
[19] = biological target: Tyrosine-protein kinase Fes/Fps (Homo sapiens) (UniProt P07332)
[20] = biological target: ALK tyrosine kinase receptor (Homo sapiens) (UniProt Q9UM73)
[21] = biological target: Tyrosine-protein kinase JAK1 (Homo sapiens) (UniProt P23458)
[22] = biological target: Dual specificity protein kinase CLK2 (Homo sapiens) (UniProt P49760)
[23] = biological target: Serine/threonine-protein kinase PAK 4 (Homo sapiens) (UniProt O96013)
[24] = biological target: Cyclin-dependent kinase 2 (Homo sapiens) (UniProt P24941)
[25] = biological target: Calcium/calmodulin-dependent protein kinase type II subunit alpha (Homo sapiens) (UniProt Q9UQM7)
[26] = biological target: Tyrosine-protein kinase receptor UFO (Homo sapiens) (UniProt P30530)
[27] = biological target: Tyrosine-protein kinase JAK2 (Homo sapiens) (UniProt O60674)
[28] = biological target: RAC-alpha serine/threonine-protein kinase (Homo sapiens) (UniProt P31749)
[29] = biological target: Aurora kinase A (Homo sapiens) (UniProt O14965)
[30] = biological target: Tyrosine-protein kinase Fyn (Homo sapiens) (UniProt P06241)
[31] = biological target: Angiopoietin-1 receptor (Homo sapiens) (UniProt Q02763)
[32] = biological target: Vascular endothelial growth factor receptor 1 (Homo sapiens) (UniProt P17948)
[33] = biological target: Serine/threonine-protein kinase PLK1 (Homo sapiens) (UniProt P53350)
[34] = biological target: Epidermal growth factor receptor (Homo sapiens) (UniProt P00533)
[35] = biological target: Serine/threonine-protein kinase PAK 1 (Homo sapiens) (UniProt Q13153)
[36] = biological target: Serine/threonine-protein kinase Chk1 (Homo sapiens) (UniProt O14757)
[37] = biological target: Homeodomain-interacting protein kinase 2 (Homo sapiens) (UniProt Q9H2X6)

Measured: inhibition

CC(C)(C)c1cc(NC(=O)Nc2cccc(Nc3ccc4c(-c5cn[nH]c5)n[nH]c4c3)c2)n(-c2cc(F)cc(F)c2)n1
50%: [7] | [17] | [30] | [31] | [32]
< 40%: all other assays above
